The values below come from ChEMBL document CHEMBL1121560, “Synthesis and biological activity of 5-fluoro-2'-deoxyuridine 5'-phosphorodiamidates” (J Med Chem, 1980).

Broadly, the Inhibition is the percentage by which the read-out fell short of the control. Low values mean little suppression, high ones strong suppression.

A short description of data set [1]: Half-life for hydrolysis to 5-fluoro-2'-deoxyuridine-5'-phosphate at 100 degree Centigrade.
Another data set deals with L5178Y. Description: In vitro percent inhibition at 10 e-8 M against L5178Y cell growth after 72 hr (replicate flasks inoculated with 10 e5 cells were treated with the nucleotide).
The nature of data set [2]: Half-life for hydrolysis to 5-fluoro-2'-deoxyuridine-5'-phosphate at 65 degree Centigrade.

As for `O=c1[nH]c(=O)n([C@H]2C[C@H](O)[C@@H](COP(=O)(n3ccnc3)n3ccnc3)O2)cc1F`, the T1/2 turned out to be 720 min in data set [1] and 2.5 days in data set [2]. This compound registered an Inhibition with L5178Y of 16%.
